Earlier results as cited in patent US20060009393A1, “Immunogenic epitopes for fibroblast growth factors 5 (FGF-5)” (The Government of the U.S.A as represented by the Secretary …, priority 1999, published 2006).

Test system: metastatic disease (renal cell carcinoma)
Settings: cited from earlier work

For “IL-2: high-dose bolus interleukin 2 immunotherapy”, the “chance of being alive and free of disease in complete responders” value (median follow-up of over nine years) is listed as 80%, the “fraction of regressions that are complete responses” value (metastatic RCC) is listed as “about one third” and the patients with regression (metastatic RCC) is listed as 15-20%.
